Target: Prostaglandin G/H synthase 1 (Homo sapiens, UniProt P23219)

Sequences of proteins named here, by UniProt entry; tags and fusion partners are left off.
UniProt P23219, whole entry: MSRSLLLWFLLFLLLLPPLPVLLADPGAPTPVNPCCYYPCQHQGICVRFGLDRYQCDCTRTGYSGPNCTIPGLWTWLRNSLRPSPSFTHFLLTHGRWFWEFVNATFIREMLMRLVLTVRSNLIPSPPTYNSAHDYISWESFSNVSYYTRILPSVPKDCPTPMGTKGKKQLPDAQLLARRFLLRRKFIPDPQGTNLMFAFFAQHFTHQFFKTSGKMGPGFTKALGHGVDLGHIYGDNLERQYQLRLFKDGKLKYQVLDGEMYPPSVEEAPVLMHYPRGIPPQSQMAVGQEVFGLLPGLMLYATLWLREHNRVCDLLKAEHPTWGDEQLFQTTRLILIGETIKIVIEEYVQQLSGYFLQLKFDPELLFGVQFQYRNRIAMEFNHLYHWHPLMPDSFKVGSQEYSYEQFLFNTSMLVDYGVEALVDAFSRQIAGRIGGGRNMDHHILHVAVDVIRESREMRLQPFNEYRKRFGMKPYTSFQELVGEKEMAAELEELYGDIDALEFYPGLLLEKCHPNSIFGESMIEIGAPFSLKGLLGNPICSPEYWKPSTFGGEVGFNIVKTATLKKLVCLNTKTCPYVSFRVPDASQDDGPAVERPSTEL

IC50: > 10 µM
SMILES: O=C(O)CCc1nc(-c2ccccc2)c(-c2ccccc2)o1 [3-(4,5-Diphenyl-oxazol-2-yl)-propionic acid]

Reference: BindingDB's records for doi:10.1016/s0002-9343(98)00091-6 (Dallas Department of Veterans Affairs Medical Center, 1998)
